Reference: US20260382729A1, “HETEROBIFUNCTIONAL COMPOUNDS AS p53 ACETYLATORS” (published 2026)

Assays:
[1] = tested on: p53Y220C (p53-K382 acetylation); assay: p53-K382 acetylation in an IP assay (Example 86); settings: compared with DMSO and PK9323
Description: Example 86. P53-Acetylation of p53Y220C Acetylators (FIG. 2)
Compared with DMSO and the p53Y220C small-molecule binder PK9323, NS131-8, NS131-9, NS131-10, NS131-11 and NS131-12 induced p53-K382 acetylation in an IP assay.
(§1) NCI-H1299 and BxPC3 cell lines were cultivated in RPMI-1640 medium while Huh7 cell line was supplemented in DMEM medium with 10% FBS, 100 units/mL of penicillin/streptomycin. NCI-H1299 stable cell line expressing p53Y220C-FLAG was cultivated in RPMI-1640 medium supplemented with 10% FBS, 100 units/mL of penicillin/streptomycin and G418 (500 g/mL).
(§2) Cells were lysed on ice for 30 min with the lysis buffer (50 mM Tris pH 7.4, 1% IGEPAL CA-630, 150 mM NaCl, 1 mM EDTA, and 1 mM AESBF), supplemented with protease and phosphatase inhibitor cocktail (A32961, Thermo Fisher Scientific). The sample was centrifuged at 12 000 g for 10 min at 4 °C to get supernatant as cell lysate. The primary antibodies used were p53 (Cat #10442-1-AP, Proteintech), p21 (Cat #2947S, Cell Signaling Technology), acetyl-382 lysing p53 (p53382Kac) (Cat #2525L, Cell Signaling Technology), DYKDDDDK (FLAG) Tag (Cat #14793S, Cell Signaling Technology) and Vinculin (Cat #4650S, Cell Signaling Technology). LI-COR secondary antibodies (IRDye® Donkey anti-rabbit IgG) was used to obtain protein signals, which were then analyzed by Image Studio Lite software (LI-COR).

[2] = tested on: p21 protein level in BxPC3 cells; assay: p21 induction, Western blot, BxPC3 (Example 85)
Description: Example 85. P21 Induction of p53Y220C Acetylators (FIG. 1)
as §1, §2

[3] = tested on: p21 protein expression in NCI-H1299 (p53Y220C) cells; assay: p21 protein expression, Western blot, NCI-H1299 (p53Y220C); settings: 5 μM, 24 h
Description: (§3) FIG. 5. Design and testing of initial p53Y220C-targeting AceTACs. (A) Crystal structure of the p53Y220C-PK9323 complex (PDB ID: 6SI0).^25 The cross-section of the occupied binding pocket is highlighted and the structure of PK9323 is shown. […] . (D) Representative Western blot (WB) results of PK9323 and compounds 1-4 on inducing p21 protein expression from three independent experiments. H1299 (p53Y220C) stable cells were treated with the indicated compounds at the indicated concentrations for 24 h. (E) Chemical structure of compounds 5-9. (F) Representative WB results of compounds 5-9 on inducing p21 protein expression from three independent experiments. NCI-H1299 (p53Y220C) stable cells were treated with the indicated compounds at the indicated concentrations for 24 h. (G) Quantification of p21 induction (from panels 1D and 1F) by PK9323 and compounds 1-9 at 24 h time point, following 5 μM treatment (from three independent experiments). (H) Left, representative WB results of the p53K382ac level following the treatment with the indicated compounds at 5 μM for 8 h from three independent experiments. NCI-H1299 (p53Y220C) stable cells were treated with the indicated compounds for 8 h followed by endogenous immunoprecipitation (IP) FLAG pulldown. Right, quantification of the normalized p53K382ac level (p53K382ac level over total p53 protein level) following the treatment with the indicated compounds at 5 M for 8 h (from three independent experiments).
To test these compounds, an NCI-H1299 cell line stably expressing the FLAG tagged p53Y220C mutant, NCI-H1299 (p53Y220C) was generated. The background NCI-H1299 cell line is a p53 null cell line. […] The lack of significant effects could be due to that the extra methyl group on the terminal amine and the amide functionality in compounds 1-4 might impact binding of these compounds to p53Y220C, based on the previously reported structure—activity relationship (SAR) results for the PK9323 series. 25, 26 Therefore, a second set of AceTACs, compounds 5-9 was designed, by removing the extra methyl group and amide functionality (FIG. 5E, Scheme S2). Compounds 5-9 increased the expression of p21 by about 2-fold compared to PK9323 at the same concentration (FIG. 5F-G). Particularly, compound 7 (PEG-3) at 5 μM induced the most significant acetylation of p53Y220C lysine 382 (p53K382ac) among these compounds (with PK9323 as a control) at 8 h treatment (FIG. 5H).
NCI-H1299 (CRL-5803), BxPC3 (CRL-1687) and U-20S (HTB-96) were purchased from the American Tissue Culture Collection (ATCC, Manassas, VA). In addition, NUGC-3 were obtained from the Japan Health Science Research Resources Bank (JCRB, JCRB0822). […]

[4] = tested on: p53Y220C K382 acetylation (p53K382ac) in NCI-H1299 (p53Y220C) cells; assay: p53K382ac level, Western blot / FLAG pull-down, NCI-H1299 (p53Y220C); settings: 5 μM, 8 h, FLAG pulldown, PK9323 as control
Description: as §3, with “NCI-H1299 (p53Y220C) stable cells were treated with the indicated compounds at the indicated concentrations for 24 h.” left out, “(H) Left, representative WB results of the p53K382ac level following the treatment with the indicated compounds at 5 μM for 8 h from three independent experiments. NCI-H1299 (p53Y220C) stable cells were treated with the indicated compounds for 8 h followed by endogenous immunoprecipitation (IP) FLAG pulldown.” left out
FIG. 6. […] Right, quantification of the normalized p53K382ac level on the left. […] Right, quantification of normalized p300 and p53K382ac levels from three independent experiments shown on the left. […] Right, quantification of normalized p300 and p53K382ac levels from three independent experiments shown on the left. […]

[5] = tested on: p53Y220C (p53-K382 acetylation); assay: time-dependent p53Y220C acetylation, Western blot (Example 87); settings: 2 h to 24 h
Description: Example 87. NS131-10 Induces Time-Dependent p53Y220C Acetylation (FIG. 3)
NS131-10 induced p53-K382 acetylation starting from 2 h and more significant acetylation at 24 h.
as §2

SMILES | p53-K382 acetylation [1] | p21 protein level induction [2] | p21 protein expression [3] | acetylation of p53Y220C lysine 382 (p53K382ac) [4] | p53-K382 acetylation, time dependence [5]
CCn1c2ccc(CNCCOCCOCCn3cc(COc4ccc(CCc5nc6cc(-c7c(C)noc7C)ccc6n5CCN5CCOCC5)cc4F)nn3)cc2c2ccc(-c3cscn3)cc21 | induced p53-K382 acetylation | induced the p21 protein level in BxPC3 cells in a concentration-dependent manner |  |  | 
CCn1c2ccc(CNCCOCCn3cc(COc4ccc(CCc5nc6cc(-c7c(C)noc7C)ccc6n5CCN5CCOCC5)cc4F)nn3)cc2c2ccc(-c3cscn3)cc21 | induced p53-K382 acetylation | induced the p21 protein level in BxPC3 cells in a concentration-dependent manner |  |  | 
CCn1c2ccc(CNCCOCCOCCOCCOCCOCCn3cc(COc4ccc(CCc5nc6cc(-c7c(C)noc7C)ccc6n5CCN5CCOCC5)cc4F)nn3)cc2c2ccc(-c3cscn3)cc21 | induced p53-K382 acetylation | induced the p21 protein level in BxPC3 cells in a concentration-dependent manner |  |  | 
CCn1c2ccc(CN(C)C(=O)CCOCCOCCn3cc(COc4ccc(CCc5nc6cc(-c7c(C)noc7C)ccc6n5CCN5CCOCC5)cc4F)nn3)cc2c2ccc(-c3cscn3)cc21 |  |  | did not |  | 
CCn1c2ccc(CN(C)C(=O)CCOCCn3cc(COc4ccc(CCc5nc6cc(-c7c(C)noc7C)ccc6n5CCN5CCOCC5)cc4F)nn3)cc2c2ccc(-c3cscn3)cc21 |  |  | did not |  | 
CCn1c2ccc(CNCCOCCOCCOCCn3cc(COc4ccc(CCc5nc6cc(-c7c(C)noc7C)ccc6n5CCN5CCOCC5)cc4F)nn3)cc2c2ccc(-c3cscn3)cc21 |  | induced the p21 protein level in BxPC3 cells in a concentration-dependent manner |  | induced the most significant acetylation | induced p53-K382 acetylation starting from 2 h and more significant acetylation at 24 h
CCn1c2ccc(CN(C)C(=O)COCCOCCOCCn3cc(COc4ccc(CCc5nc6cc(-c7c(C)noc7C)ccc6n5CCN5CCOCC5)cc4F)nn3)cc2c2ccc(-c3cscn3)cc21 |  | slightly induced the p21 protein level | modestly increased p21 expression |  | 
CCn1c2ccc(CN(C)C(=O)COCCOCCOCCOCCn3cc(COc4ccc(CCc5nc6cc(-c7c(C)noc7C)ccc6n5CCN5CCOCC5)cc4F)nn3)cc2c2ccc(-c3cscn3)cc21 |  | slightly induced the p21 protein level | modestly increased p21 expression |  | 
CCn1c2ccc(CNCCOCCOCCOCCOCCn3cc(COc4ccc(CCc5nc6cc(-c7c(C)noc7C)ccc6n5CCN5CCOCC5)cc4F)nn3)cc2c2ccc(-c3cscn3)cc21 | induced p53-K382 acetylation | induced the p21 protein level in BxPC3 cells in a concentration-dependent manner |  |  | 
